pEC50, pIC50: −log10 of the molar value.
Experiments:
Calcitonin receptor [1] = target: T1, Calcitonin receptor (Homo sapiens, UniProt P30988); assay: Agonist activity at human CTR expressed in Baby hamster kidney cells incubated for 3 hrs followed by medium replacement without compound measured after 30 mins by luciferase reporter assay; assay type: functional, cell-based, Baby hamster kidney cell
T1 sequence (P30988 whole entry): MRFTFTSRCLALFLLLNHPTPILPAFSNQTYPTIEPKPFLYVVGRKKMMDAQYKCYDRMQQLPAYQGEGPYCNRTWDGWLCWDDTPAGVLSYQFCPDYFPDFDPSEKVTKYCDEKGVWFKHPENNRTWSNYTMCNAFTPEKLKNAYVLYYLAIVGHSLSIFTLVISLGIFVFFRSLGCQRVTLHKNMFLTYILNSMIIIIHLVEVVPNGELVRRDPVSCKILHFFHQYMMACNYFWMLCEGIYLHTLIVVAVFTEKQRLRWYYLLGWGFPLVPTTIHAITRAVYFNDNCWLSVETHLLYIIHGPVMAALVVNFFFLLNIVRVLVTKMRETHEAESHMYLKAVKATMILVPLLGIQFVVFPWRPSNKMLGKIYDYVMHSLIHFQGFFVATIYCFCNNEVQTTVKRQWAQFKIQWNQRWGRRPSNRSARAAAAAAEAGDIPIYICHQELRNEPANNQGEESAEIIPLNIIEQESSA

Sequences of proteins named here, by UniProt entry; tags and fusion partners are left off. A change or cut given only in a name is not applied to a line headed by its entry.
UniProt O60894: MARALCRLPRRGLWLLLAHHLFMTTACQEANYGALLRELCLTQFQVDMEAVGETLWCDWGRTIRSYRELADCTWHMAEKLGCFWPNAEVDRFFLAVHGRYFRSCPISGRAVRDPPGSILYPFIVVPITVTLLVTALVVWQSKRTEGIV
UniProt O60895: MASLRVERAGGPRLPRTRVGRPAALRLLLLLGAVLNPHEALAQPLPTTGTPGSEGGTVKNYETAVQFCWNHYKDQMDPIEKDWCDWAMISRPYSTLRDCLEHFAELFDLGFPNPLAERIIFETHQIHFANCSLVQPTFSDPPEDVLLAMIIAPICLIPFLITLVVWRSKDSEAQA
UniProt Q16602: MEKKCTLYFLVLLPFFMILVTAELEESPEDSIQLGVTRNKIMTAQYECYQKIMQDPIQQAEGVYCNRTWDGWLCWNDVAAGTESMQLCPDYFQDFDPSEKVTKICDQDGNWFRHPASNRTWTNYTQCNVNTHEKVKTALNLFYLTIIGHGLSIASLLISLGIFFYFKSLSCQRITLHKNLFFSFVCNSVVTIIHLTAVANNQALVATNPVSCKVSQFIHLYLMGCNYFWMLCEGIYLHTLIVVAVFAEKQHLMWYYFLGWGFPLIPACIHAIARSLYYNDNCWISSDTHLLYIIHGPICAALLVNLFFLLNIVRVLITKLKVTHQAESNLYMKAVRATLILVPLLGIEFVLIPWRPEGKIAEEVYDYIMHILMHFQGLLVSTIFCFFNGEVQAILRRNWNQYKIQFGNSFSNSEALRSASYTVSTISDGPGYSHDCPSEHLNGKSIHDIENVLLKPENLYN

[2] = target: T2, Amylin receptor AMY3; CALCR/RAMP3 (Rattus norvegicus, UniProt P32214+Q9JJ73); assay: Agonist activity at rat AMY3R complex of CTR/RAMP3 expressed in Baby hamster kidney cells incubated for 3 hrs by cAMP assay; assay type: functional, cell-based, Baby hamster kidney cell
T2 sequence (P32214 whole entry): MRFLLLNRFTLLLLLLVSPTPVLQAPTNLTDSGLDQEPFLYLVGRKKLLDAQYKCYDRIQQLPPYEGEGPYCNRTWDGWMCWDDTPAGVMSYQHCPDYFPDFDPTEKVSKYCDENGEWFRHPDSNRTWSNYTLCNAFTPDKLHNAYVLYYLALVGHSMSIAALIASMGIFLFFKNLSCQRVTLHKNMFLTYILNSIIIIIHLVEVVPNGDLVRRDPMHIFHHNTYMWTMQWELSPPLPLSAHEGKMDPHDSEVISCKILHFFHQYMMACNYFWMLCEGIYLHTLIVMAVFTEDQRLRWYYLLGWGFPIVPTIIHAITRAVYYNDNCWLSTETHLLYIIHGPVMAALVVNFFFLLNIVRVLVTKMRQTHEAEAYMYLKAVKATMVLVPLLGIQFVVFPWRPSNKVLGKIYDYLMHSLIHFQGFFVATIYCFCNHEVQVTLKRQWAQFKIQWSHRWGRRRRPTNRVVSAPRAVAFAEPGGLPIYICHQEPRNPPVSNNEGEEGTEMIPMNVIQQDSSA
T2 sequence (Q9JJ73 whole entry): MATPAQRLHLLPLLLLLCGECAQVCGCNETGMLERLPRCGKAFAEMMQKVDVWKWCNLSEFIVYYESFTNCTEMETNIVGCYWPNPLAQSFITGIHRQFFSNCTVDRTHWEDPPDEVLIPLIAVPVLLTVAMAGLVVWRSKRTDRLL

Calcitonin receptor [3] = target: T3, Calcitonin receptor (Rattus norvegicus, UniProt P32214); assay: Agonist activity at rat CTR expressed in Baby hamster kidney cells incubated for 3 hrs by cAMP assay; assay type: functional, cell-based, Baby hamster kidney cell
T3 sequence (P32214 whole entry): T2 sequence (P32214 whole entry)

[4] = target: T4, Amylin receptor AMY3; CALCR/RAMP3 (Homo sapiens, UniProt O60896+P30988); assay: Displacement of 125I-rat amylin from human AMY3R complex of CTR/RAMP3 expressed in Baby hamster kidney cell membrane incubated for 120 mins by SPA method; assay type: cell membranes
T4 sequence (P30988 whole entry): T1 sequence (P30988 whole entry)
T4 sequence (O60896 whole entry): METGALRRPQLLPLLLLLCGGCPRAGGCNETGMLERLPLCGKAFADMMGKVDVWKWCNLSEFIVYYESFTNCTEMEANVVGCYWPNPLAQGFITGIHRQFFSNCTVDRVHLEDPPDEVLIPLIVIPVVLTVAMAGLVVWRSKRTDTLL

Calcitonin receptor [5] = target: T1, Calcitonin receptor; assay: Displacement of 125I-Calcitonin from human CTR expressed in Baby hamster kidney cell membrane incubated for 120 mins by SPA method; assay type: cell membranes
[6] = target: T2, Amylin receptor AMY3; CALCR/RAMP3; assay: Displacement of 125I-rat amylin from rat AMY3R complex of CTR/RAMP3 expressed in Baby hamster kidney cell membrane incubated for 120 mins by SPA method; assay type: cell membranes
Calcitonin receptor [7] = target: T3, Calcitonin receptor; assay: Displacement of 125I-Calcitonin from rat CTR expressed in Baby hamster kidney cell membrane incubated for 120 mins by SPA method; assay type: cell membranes
Calcitonin receptor [8] = target: T1, Calcitonin receptor; assay: Agonist activity at human CTR transduced in human HeLa cells by cAMP assay; assay type: functional, cell-based
[9] = target: Amylin receptor AMY1, CALCR/RAMP1 (Homo sapiens, UniProt O60894+P30988); assay: Agonist activity at human AMY1R complex of CTR/RAMP1 transduced in human HeLa cells by cAMP assay; assay type: functional, cell-based
[10] = target: Amylin receptor AMY2; CALCR/RAMP2 (Homo sapiens, UniProt O60895+P30988); assay: Agonist activity at human AMY2R complex of CTR/RAMP2 transduced in human HeLa cells by cAMP assay; assay type: functional, cell-based
[11] = target: T4, Amylin receptor AMY3; CALCR/RAMP3; assay: Agonist activity at human AMY3R complex of CTR/RAMP3 transduced in human HeLa cells by cAMP assay; assay type: functional, cell-based
[12] = target: Calcitonin-gene-related peptide receptor, CALCRL/RAMP1 (Homo sapiens, UniProt O60894+Q16602); assay: Agonist activity at human CGRPR complex of CRLR/RAMP1 transduced in human HeLa cells by cAMP assay; assay type: functional, cell-based
[13] = target: Adrenomedullin receptor, AM2; CALCRL/RAMP3 (Homo sapiens, UniProt O60896+Q16602); assay: Agonist activity at human AM2R complex of CRLR/RAMP3 transduced in human HeLa cells by cAMP assay; assay type: functional, cell-based

- pEC50 (Calcitonin receptor [1]): 10.15
- pEC50 [2]: 11.40
- pEC50 (Calcitonin receptor [3]): 8.74
- pIC50 [4]: 9.94
- pIC50 (Calcitonin receptor [5]): 8.83
- pIC50 [6]: 9.91
- pIC50 (Calcitonin receptor [7]): 8.23
- pEC50 (Calcitonin receptor [8]): 9.48
- pEC50 [9]: 10.66
- pEC50 [10]: 10.19
- pEC50 [11]: 10.53
- pEC50 [12]: 7.63
- pEC50 [13]: 6.83
Structure (SMILES): CC[C@H](C)[C@H](NC(=O)[C@@H]1CCCN1C(=O)CNC(=O)[C@H](Cc1ccccc1)NC(=O)[C@H](CC(N)=O)NC(=O)[C@H](CC(N)=O)NC(=O)[C@H](CO)NC(=O)[C@H](CO)NC(=O)[C@H](Cc1c[nH]cn1)NC(=O)[C@@H](NC(=O)[C@H](CC(C)C)NC(=O)[C@H](Cc1ccccc1)NC(=O)[C@H](CC(N)=O)NC(=O)[C@H](C)NC(=O)[C@H](CC(C)C)NC(=O)[C@H](CCCNC(=N)N)NC(=O)[C@H](CCC(N)=O)NC(=O)[C@@H](NC(=O)[C@H](C)NC(=O)[C@@H]1CSSC[C@H](NC(=O)[C@@H](N)CCCCN)C(=O)N[C@@H](CC(N)=O)C(=O)N[C@@H]([C@@H](C)O)C(=O)N[C@@H](C)C(=O)N[C@@H]([C@@H](C)O)C(=O)N1)[C@@H](C)O)C(C)C)C(=O)N[C@@H](CC(C)C)C(=O)N1CCC[C@H]1C(=O)N1CCC[C@H]1C(=O)N[C@H](C(=O)N[C@@H](CC(N)=O)C(=O)N[C@H](C(=O)NCC(=O)N[C@@H](CO)C(=O)N[C@@H](CC(N)=O)C(=O)N[C@H](C(=O)N[C@@H](Cc1ccc(O)cc1)C(N)=O)[C@@H](C)O)C(C)C)[C@@H](C)O [PRAMLINTIDE]

Reference: ChEMBL document CHEMBL5523739, “NN1213 - A Potent, Long-Acting, and Selective Analog of Human Amylin” (J Med Chem, 2024)
